Source: PMC7024360

Tests used:
[1] = target: T1, BC2L-C N-terminal lectin domain (BC2L-CN, rBC2L-CN2) (Burkholderia cenocepacia, UniProt B4EH86); experiment: ITC at […] °C and X-ray co-crystal structure ([…] Å)
[2] = target: T1, BC2L-C N-terminal lectin domain (BC2L-CN, rBC2L-CN2); experiment: ITC at […] °C and X-ray co-crystal structure ([…] Å); remark: listed apart in the source
[3] = target: T1, BC2L-C N-terminal lectin domain (BC2L-CN, rBC2L-CN2); experiment: ITC at […] °C (single measurement)

CC(=O)N[C@H]1[C@H](O[C@H]2[C@@H](O)[C@@H](CO)OC(O)[C@@H]2O)O[C@H](CO)[C@@H](O)[C@@H]1O[C@@H]1O[C@H](CO)[C@H](O)[C@H](O)[C@H]1O[C@@H]1O[C@@H](C)[C@@H](O)[C@@H](O)[C@@H]1O (stereo partly drawn) [H-type 1, H-type 1 tetrasaccharide]
Kd [1]: 56.6 µM

CC(=O)N[C@H]1[C@H](O[C@H]2[C@@H](O)[C@@H](CO)O[C@H](O[C@@H]3[C@H](O)[C@@H](O)[C@H](O[C@H]4[C@H](O)[C@@H](O)C(O)O[C@@H]4CO)O[C@@H]3CO)[C@@H]2O)O[C@H](CO)[C@H](O)[C@@H]1O[C@@H]1O[C@H](CO)[C@H](O)[C@H](O)[C@H]1O[C@@H]1O[C@@H](C)[C@@H](O)[C@@H](O)[C@@H]1O (stereo partly drawn) [GloboH (H-type 3), Globo H hexasaccharide]
Kd [2]: 26 ± 1.7 µM

CC(=O)N[C@H]1[C@H](O[C@H]2[C@@H](O)[C@@H](CO)OC(O)[C@@H]2O)O[C@H](CO)[C@@H](O[C@@H]2O[C@H](CO)[C@H](O)[C@H](O)[C@H]2O[C@@H]2O[C@@H](C)[C@@H](O)[C@@H](O)[C@@H]2O)[C@@H]1O[C@@H]1O[C@@H](C)[C@@H](O)[C@@H](O)[C@@H]1O (stereo partly drawn) [Lewis Y, Lewis Y pentasaccharide]
Kd [3]: 52.6 µM
